# Data as given in PubChem BioAssay AID449763 (Sanford-Burnham Center for Chemical Genomics, 2010).
# This is a selection; strong and weak results do not stand in their true shares. Some salts and complexes are drawn in separate pieces, as the source files them; their charges need not balance. Calls of active or inactive are those of the source.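 The calls were made as follows: active = at 10 µM dose, activation of 40% or more, normalized to positive control; inactive = the rest.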
# Experiment: activators of apoptotic CHOP UPR arm, primary screen, cell-based, CHO-CHOP luciferase reporter, luminescence, uHTS (AID 449763);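 also: 100% = tunicamycin at 10 µg/mL and 0% = DMSO alone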
# Details: at 10 µM, hits give high values, percent of tunicamycin response over DMSO baseline
# Procedure, shortened: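 Dosing – one dose, 10 µM in 0.5% DMSO · System – CHO-CHOP cells, stable luciferase reporter of PERK-eIF2a-CHOP signalling · Input – 500 cells/well · Control set – tunicamycin 10 µg/mL final as positive, DMSO-only wells as negative · Timing – 6 h compound treatment, 37 °C · Measure – % activation vs tunicamycin · Technique – luminescence read with Steady-Glo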
row,SMILES,activation
1,CCOC(=O)c1ccc(NP(C)(=O)Oc2ccc(Cl)cc2)cc1 (stereo unspecified),inactive: 1.63%
2,Nc1ccc2c(ccc3cccnc32)n1.O=[N+]([O-])c1cc([N+](=O)[O-])c(O)c([N+](=O)[O-])c1,inactive: -0.59%
3,CN(C)C(=O)c1c([N+](=O)[O-])cc([N+](=O)[O-])cc1[N+](=O)[O-],inactive: 5.27%
4,CP(=O)(Nc1ccc(Cl)cc1)Oc1ccc(F)cc1 (stereo unspecified),inactive: 1.02%
5,COc1ccccc1OP(C)(=O)Nc1ccccc1Br (stereo unspecified),inactive: -0.06%
6,CC(C)(C)c1ccc(OP(C)(=O)O)cc1,inactive: 1.95%
7,CCc1ccc(OP(C)(=O)Nc2cccnc2)cc1 (stereo unspecified),inactive: -1.44%
8,CP(=O)(Oc1ccccc1)N1CCOC1=O (stereo unspecified),inactive: 0.0182%
9,O=C(OCCCN1CCCC1)C(O)(c1ccccc1)C1CCCCC1 (stereo unspecified),inactive: 1.73%
10,COc1ccccc1OP(C)(=O)Nc1c(C)n(C)n(-c2ccccc2)c1=O (stereo unspecified),inactive: -1.99%
11,COc1ccc(OP(C)(=O)Nc2ccc(Br)cc2)cc1 (stereo unspecified),inactive: 0.265%
12,CCN(CC)CC(O)COC(=O)C(O)(c1ccccc1)C1CCCCC1 (stereo unspecified),inactive: -0.145%
13,Cc1ccccc1NP(C)(=O)Nc1ccccc1C,inactive: -1.72%
14,CP(=O)(Nc1ccc2c(c1)OCCO2)Oc1ccccc1 (stereo unspecified),inactive: -2.01%
15,CCOP(C)(=S)SCC(=O)NC(C)(CC)C(=O)O (stereo unspecified),inactive: 2.75%
16,CP(=O)(Nc1ccc(SC(F)(F)F)cc1)Oc1ccc(F)cc1 (stereo unspecified),inactive: -0.973%

row,SMILES,activation
1,O=[N+]([O-])c1cc([N+](=O)[O-])c(NCC2CCS(=O)(=O)C2)c([N+](=O)[O-])c1 (stereo unspecified),inactive: -3.47%
2,COc1ccc(NP(C)(=O)Oc2ccccc2OC)cc1 (stereo unspecified),inactive: -1.33%
3,CN(C)CCOC(=O)C(O)(c1ccccc1)C1CCCCC1 (stereo unspecified),inactive: -1.58%
4,COc1ccc(OP(C)(=O)Nc2cccc(Br)c2)cc1 (stereo unspecified),inactive: -1.99%
5,O=[N+]([O-])c1cc([N+](=O)[O-])c(OC2CCCCC2O)c([N+](=O)[O-])c1 (stereo unspecified),inactive: 0.585%
6,CCCCCOc1ccc(NP(C)(=O)Oc2ccc(Cl)cc2Cl)cc1 (stereo unspecified),inactive: -0.0496%
7,CP(=O)(Nc1ccccc1)Oc1ccc(F)cc1 (stereo unspecified),inactive: -0.387%
8,CCN(CC)CCCOC(=O)C(O)(c1ccccc1)C1CCCCC1 (stereo unspecified),inactive: -0.64%
9,COc1ccc(OP(C)(=O)Nc2ccc(SC(F)(F)F)cc2)cc1 (stereo unspecified),inactive: 0.938%
10,CCOC(=O)c1ccc(NP(C)(=O)Oc2ccc(F)cc2)cc1 (stereo unspecified),inactive: -0.374%
11,COc1ccc2c(c1O)-c1c(O)c(OC)cc3c1[C@H](C2)[N+](C)(C)CC3.O=[N+]([O-])c1cc([N+](=O)[O-])c([O-])c([N+](=O)[O-])c1[O-],inactive: 1.34%
12,O=C(OCCN1CCN(CCOCc2ccccc2)CC1)C(O)(c1ccccc1)c1ccccc1,inactive: 0.443%
13,O=C(OC1CN2CCC1CC2)c1ccc([N+](=O)[O-])cc1 (stereo unspecified),inactive: 0.884%
14,CC(C)c1ccc(OP(C)(=O)Nc2ccc(SC(F)(F)F)cc2)cc1 (stereo unspecified),inactive: -2.2%
15,CP(=O)(Nc1ccccc1F)Oc1ccccc1 (stereo unspecified),inactive: -0.937%
